Measurements as given in PubChem BioAssay AID488784 (Sanford-Burnham Center for Chemical Genomics, 2010).
The list shows a part of the results, in another mix than the full data. The source made the active and inactive calls. Rule as the data show it: active = inhibition above about 50%; inactive = the rest.

Assay: CASP1-PYCARD signaling inhibition in yeast, confirmatory test, counterassay for NLRP3 inhibitor program, one-dose (AID 488784)
Settings: yeast expressing Caspase-1-ASC, luminescence counter screen; at 10 µM; stronger effect = higher value

Row | Compound | inhibition
1 | CC(C)(C)OC(=O)N1CCC(Nc2ccccc2)CC1 | active: 50.8%
